# Laboratory results reported in US11660301B2, “Combination of ATR kinase inhibitors with PARP inhibitors” (Bayer Pharma Aktiengesellschaft, priority 2017, dated 2023).
# Marks after values point to notes of the source that are not given here.
# What was measured:
# [1] = tested on: MDA-MB-436; test: In vitro anti-proliferation (Cell Titre-Glo), MDA-MB-436; type: cell-based; conditions: Homo sapiens, MDA-MB-436, 96 h, read-out: IC50, mono
# Protocol: (§1) Tumor cells (Table 1) were propagated in a humidified 37° C. incubator in their respective growth medium supplemented 10% fetal calf serum. […] Test compounds were added to the wells using a Tecan-HP Digital Dispenser. After 96 hours of incubation cell viability was assessed with the Cell Titre-Glo Luminescent Cell Viability Assay (Promega).
# [2] = tested on: IGR-OV-1; test: In vitro anti-proliferation (Cell Titre-Glo), IGR-OV-1; type: cell-based; conditions: Homo sapiens, IGROV-1, 96 h, read-out: IC50, mono
# Protocol: as §1
# [3] = tested on: HT-144; test: In vitro anti-proliferation (Cell Titre-Glo), HT-144; type: cell-based; conditions: Homo sapiens, HT-144, 96 h, read-out: IC50, mono
# Protocol: as §1
# [4] = tested on: NCI-H460; test: In vitro anti-proliferation (Cell Titre-Glo), NCI-H460; type: cell-based; conditions: Homo sapiens, NCI-H460, 96 h, read-out: IC50, mono
# Protocol: as §1
# [5] = tested on: human 22Rv1 prostate cancer xenograft; conditions: mouse, in vivo
# [6] = tested on: human MDA-MB-436 breast cancer xenograft; conditions: mouse, in vivo
# [7] = tested on: human 22Rv1 prostate cancer xenograft; test: 22Rv1 prostate cancer xenograft model; conditions: mouse, in vivo
# [8] = tested on: human MDA-MB-436 breast cancer xenograft; test: MDA-MB-436 breast cancer xenograft model; conditions: mouse, in vivo
structure (smiles),measurement,setting,value
"C[C@@H]1COCCN1c1cc(-c2ccnn2C)c2ccnc(-c3ccn[nH]3)c2n1 [Compound A, 2-[(3R)-3-methylmorpholin-4-yl]-4-(1-methyl-1H-pyrazol-5-yl)-8-(1H-pyrazol-5-yl)-1,7-naphthyridine]",IC50,[1],0.1 µM
same,IC50,[2],0.096 µM
same,IC50,[3],0.03 µM
same,IC50,[4],0.07 µM
same,Max. weight loss (%),[5],−3%
same,Max. weight loss (%),[6],−6%
same,T/C,[7],0.64*
same,anti-tumor efficacy,[7],weak but statistically significant improved anti-tumor efficacy
same,T/C,[8],0.57
same,anti-tumor efficacy,[8],moderate anti-tumor efficacy
